Patent publication US12576087B2, “Aryloxypiperidine pyrazole compounds as indoleamine 2,3-dioxygenase inhibitors” (Merck Sharp & Dohme LLC, priority 2018, dated 2026)

Protein sequences, listed by entry. Tags and fused reporters are not part of them.
UniProt P14902, whole entry: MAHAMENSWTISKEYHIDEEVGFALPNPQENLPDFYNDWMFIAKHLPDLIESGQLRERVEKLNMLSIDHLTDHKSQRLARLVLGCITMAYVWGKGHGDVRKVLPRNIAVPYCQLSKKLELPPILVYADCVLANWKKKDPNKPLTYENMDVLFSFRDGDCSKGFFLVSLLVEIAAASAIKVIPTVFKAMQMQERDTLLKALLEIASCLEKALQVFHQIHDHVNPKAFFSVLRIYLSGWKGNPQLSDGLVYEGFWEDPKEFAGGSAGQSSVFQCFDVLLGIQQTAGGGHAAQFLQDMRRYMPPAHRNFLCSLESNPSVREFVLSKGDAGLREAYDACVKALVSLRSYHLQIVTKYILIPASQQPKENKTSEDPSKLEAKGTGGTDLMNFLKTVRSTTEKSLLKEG

Target: IDO1 (Homo sapiens, UniProt P14902)
Assay: IDO1 Cellular Assay in HeLa Cells Stimulated with IFNγ
Format: cell-based
Conditions: HeLa cells stimulated with IFNγ 100 ng/mL, about 48 hours

Compound | EC50 [nM]
C[C@@H]1CN(C(=O)c2nn(CC(=O)N3CCC(Oc4ccccc4Cl)C3)c3c2CCC3)C[C@H](C)O1 (stereo partly drawn) [Example 121, 1-[3-(2-chlorophenoxy)pyrrolidin-1-yl]-2-{3-[(2R,6S)-2,6-dimethylmorpholine-4-carbonyl]-5,6-dihydrocyclopenta[c]pyrazol-1(4H)-yl}ethan-1-one] | 270
C[C@@H]1CN(C(=O)c2nn(CC(=O)N3CCCC(Oc4ccccc4Cl)C3)c3c2CCC3)C[C@H](C)O1 (stereo partly drawn) [Example 122, 1-[3-(2-chlorophenoxy)piperidin-1-yl]-2-{3-[(2R,6S)-2,6-dimethylmorpholine-4-carbonyl]-5,6-dihydrocyclopenta[c]pyrazol-1(4H)-yl}ethan-1-one] | 323
C[C@@H]1CN(C(=O)c2nn(CC(=O)N3CCC(OCc4c(F)cccc4F)C3)c3c2CCC3)C[C@H](C)O1 (stereo partly drawn) [Example 124, 1-{3-[(2,6-difluorophenyl)methoxy]pyrrolidin-1-yl}-2-{3-[(2R,6S)-2,6-dimethylmorpholine-4-carbonyl]-5,6-dihydrocyclopenta[c]pyrazol-1(4H)-yl}ethan-1-one] | 398
C[C@@H]1CN(C(=O)c2nn(CC(=O)N3CCCC(Oc4ccccc4Cl)C3)c3c2CCC3)C[C@H](C)O1 (stereo partly drawn) [Example 126, 1-[3-(2-chlorophenoxy)piperidin-1-yl]-2-{3-[(2R,6S)-2,6-dimethylmorpholine-4-carbonyl]-5,6-dihydrocyclopenta[c]pyrazol-1(4H)-yl}ethan-1-one] | 440
C[C@@H]1CN(C(=O)c2nn(CC(=O)N3CCC(C(=O)c4ccc(F)c(F)c4)CC3)c3c2CCC3)C[C@H](C)O1 [Example 127, 1-[4-(3,4-difluorobenzene-1-carbonyl)piperidin-1-yl]-2-{3-[(2R,6S)-2,6-dimethylmorpholine-4-carbonyl]-5,6-dihydrocyclopenta[c]pyrazol-1(4H)-yl}ethan-1-one] | 485
C[C@@H]1CN(C(=O)c2nn(CC(=O)N3CCC(Oc4ccc(Cl)c5c4CCC5)CC3)c3c2CCC3)C[C@H](C)O1 [Example 129, 1-{4-[(7-chloro-2,3-dihydro-1H-inden-4-yl)oxy]piperidin-1-yl}-2-{3-[(2R,6S)-2,6-dimethylmorpholine-4-carbonyl]-5,6-dihydrocyclopenta[c]pyrazol-1(4H)-yl}ethan-1-one] | 1.66
Cc1ccc(OC2CCN(C(=O)Cn3nc(C(=O)N4C[C@@H](C)O[C@@H](C)C4)c4c3CCC4)CC2)c(Cl)c1 [Example 131, 1-[4-(2-chloro-4-methylphenoxy)piperidin-1-yl]-2-{3-[(2R,6S)-2,6-dimethylmorpholine-4-carbonyl]-5,6-dihydrocyclopenta[c]pyrazol-1(4H)-yl}ethan-1-one] | 2.88
Cc1ccc(F)cc1OC1CCN(C(=O)Cn2nc(C(=O)N3C[C@@H](C)O[C@@H](C)C3)c3c2CCC3)CC1 [Example 135, 2-[3-(2,6-dimethylmorpholine-4-carbonyl)-5,6-dihydrocyclopenta[c]pyrazol-1(4H)-yl]-1-[4-(5-fluoro-2-methylphenoxy)piperidin-1-yl]ethan-1-one] | 7.47
C[C@@H]1CN(C(=O)c2nn(CC(=O)N3CCC(Oc4ccc(F)cc4Br)CC3)c3c2CCC3)C[C@H](C)O1 [Example 137, 1-[4-(2-bromo-4-fluorophenoxy)piperidin-1-yl]-2-{3-[(2R,6S)-2,6-dimethylmorpholine-4-carbonyl]-5,6-dihydrocyclopenta[c]pyrazol-1(4H)-yl}ethan-1-one] | 8.33
C[C@@H]1CN(C(=O)c2nn(CC(=O)N3CCC(Oc4c(F)cccc4Cl)CC3)c3c2CCC3)C[C@H](C)O1 [Example 140, 1-[4-(2-chloro-6-fluorophenoxy)piperidin-1-yl]-2-{3-[(2R,6S)-2,6-dimethylmorpholine-4-carbonyl]-5,6-dihydrocyclopenta[c]pyrazol-1(4H)-yl}ethan-1-one] | 10.3
Cc1ccc(OC2CCN(C(=O)Cn3nc(C(=O)N4C[C@@H](C)O[C@@H](C)C4)c4c3CCC4)CC2)cc1Cl [Example 143, 1-[4-(3-chloro-4-methylphenoxy)piperidin-1-yl]-2-{3-[(2R,6S)-2,6-dimethylmorpholine-4-carbonyl]-5,6-dihydrocyclopenta[c]pyrazol-1(4H)-yl}ethan-1-one] | 15.2
C[C@@H]1CN(C(=O)c2nn(CC(=O)N3CCC(Oc4cc(F)cc(F)c4F)CC3)c3c2CCC3)C[C@H](C)O1 [Example 144, 2-{3-[(2R,6S)-2,6-dimethylmorpholine-4-carbonyl]-5,6-dihydrocyclopenta[c]pyrazol-1(4H)-yl}-1-[4-(2,3,5-trifluorophenoxy)piperidin-1-yl]ethan-1-one] | 15.4
C[C@@H]1CN(C(=O)c2nn(CC(=O)N3CCC(Oc4ccc(Cl)cc4Cl)CC3)c3c2CCC3)C[C@H](C)O1 [Example 146, 1-[4-(2,4-dichlorophenoxy)piperidin-1-yl]-2-{3-[(2R,6S)-2,6-dimethylmorpholine-4-carbonyl]-5,6-dihydrocyclopenta[c]pyrazol-1(4H)-yl}ethan-1-one] | 22.6
Cc1cccc(C)c1OC1CCN(C(=O)Cn2nc(C(=O)N3C[C@@H](C)O[C@@H](C)C3)c3c2CCC3)CC1 [Example 147, 2-{3-[(2R,6S)-2,6-dimethylmorpholine-4-carbonyl]-5,6-dihydrocyclopenta[c]pyrazol-1(4H)-yl}-1-[4-(2,6-dimethylphenoxy)piperidin-1-yl]ethan-1-one] | 23.8

More lines, in order of falling EC50, values ahead:

EC50 [nM] | Compound
423 | C[C@@H]1CN(C(=O)c2nn(CC(=O)N3CCC(Oc4ccccc4Cl)C3)c3c2CCC3)C[C@H](C)O1 (stereo partly drawn) [Example 125, 1-[3-(2-chlorophenoxy)pyrrolidin-1-yl]-2-{3-[(2R,6S)-2,6-dimethylmorpholine-4-carbonyl]-5,6-dihydrocyclopenta[c]pyrazol-1(4H)-yl}ethan-1-one]
324 | COc1ccc(CC2CCN(C(=O)Cn3nc(C(=O)N4C[C@@H](C)O[C@@H](C)C4)c4c3CCC4)CC2)cc1F [Example 123, 2-{3-[(2R,6S)-2,6-dimethylmorpholine-4-carbonyl]-5,6-dihydrocyclopenta[c]pyrazol-1(4H)-yl}-1-{4-[(3-fluoro-4-methoxyphenyl)methyl]piperidin-1-yl}ethan-1-one]
16.4 | Cc1cc(Cl)ccc1OC1CCN(C(=O)Cn2nc(C(=O)N3C[C@@H](C)O[C@@H](C)C3)c3c2CCC3)CC1 [Example 145, 1-[4-(4-chloro-2-methylphenoxy)piperidin-1-yl]-2-{3-[(2R,6S)-2,6-dimethylmorpholine-4-carbonyl]-5,6-dihydrocyclopenta[c]pyrazol-1(4H)-yl}ethan-1-one]
13.9 | Cc1c(Br)cccc1OC1CCN(C(=O)Cn2nc(C(=O)N3C[C@@H](C)O[C@@H](C)C3)c3c2CCC3)CC1 [Example 142, 1-[4-(3-bromo-2-methylphenoxy)piperidin-1-yl]-2-{3-[(2R,6S)-2,6-dimethylmorpholine-4-carbonyl]-5,6-dihydrocyclopenta[c]pyrazol-1(4H)-yl}ethan-1-one]
11.7 | Cc1cc(OC2CCN(C(=O)Cn3nc(C(=O)N4C[C@@H](C)O[C@@H](C)C4)c4c3CCC4)CC2)ccc1Cl [Example 141, 1-[4-(4-chloro-3-methylphenoxy)piperidin-1-yl]-2-{3-[(2R,6S)-2,6-dimethylmorpholine-4-carbonyl]-5,6-dihydrocyclopenta[c]pyrazol-1(4H)-yl}ethan-1-one]
9.69 | C[C@@H]1CN(C(=O)c2nn(CC(=O)N3CCC(Oc4cccc(Cl)c4F)CC3)c3c2CCC3)C[C@H](C)O1 [Example 139, 1-[4-(3-chloro-2-fluorophenoxy)piperidin-1-yl]-2-{3-[(2R,6S)-2,6-dimethylmorpholine-4-carbonyl]-5,6-dihydrocyclopenta[c]pyrazol-1(4H)-yl}ethan-1-one]
8.86 | Cc1cccc(F)c1OC1CCN(C(=O)Cn2nc(C(=O)N3C[C@@H](C)O[C@@H](C)C3)c3c2CCC3)CC1 [Example 138, 2-{3-[(2R,6S)-2,6-dimethylmorpholine-4-carbonyl]-5,6-dihydrocyclopenta[c]pyrazol-1(4H)-yl}-1-[4-(2-fluoro-6-methylphenoxy)piperidin-1-yl]ethan-1-one]
8.18 | Cc1ccc(OC2CCN(C(=O)Cn3nc(C(=O)N4C[C@@H](C)O[C@@H](C)C4)c4c3CCC4)CC2)cc1C [Example 136, 2-{3-[(2R,6S)-2,6-dimethylmorpholine-4-carbonyl]-5,6-dihydrocyclopenta[c]pyrazol-1(4H)-yl}-1-[4-(3,4-dimethylphenoxy)piperidin-1-yl]ethan-1-one]
6.9 | Cc1c(Cl)cccc1OC1CCN(C(=O)Cn2nc(C(=O)N3C[C@@H](C)O[C@@H](C)C3)c3c2CCC3)CC1 [Example 134, 1-[4-(3-chloro-2-methylphenoxy)piperidin-1-yl]-2-{3-[(2R,6S)-2,6-dimethylmorpholine-4-carbonyl]-5,6-dihydrocyclopenta[c]pyrazol-1(4H)-yl}ethan-1-one]
5.4 | C[C@@H]1CN(C(=O)c2nn(CC(=O)N3CCC(Oc4cc(F)ccc4Cl)CC3)c3c2CCC3)C[C@H](C)O1 [Example 133, 1-[4-(2-chloro-5-fluorophenoxy)piperidin-1-yl]-2-{3-[(2R,6S)-2,6-dimethylmorpholine-4-carbonyl]-5,6-dihydrocyclopenta[c]pyrazol-1(4H)-yl}ethan-1-one]
2.95 | Cc1ccc(OC2CCN(C(=O)Cn3nc(C(=O)N4C[C@@H](C)O[C@@H](C)C4)c4c3CCC4)CC2)c(F)c1 [Example 132, 2-{3-[(2R,6S)-2,6-dimethylmorpholine-4-carbonyl]-5,6-dihydrocyclopenta[c]pyrazol-1(4H)-yl}-1-[4-(2-fluoro-4-methylphenoxy)piperidin-1-yl]ethan-1-one]
2.8 | Cc1cccc(OC2CCN(C(=O)Cn3nc(C(=O)N4C[C@@H](C)O[C@@H](C)C4)c4c3CCC4)CC2)c1C [Example 130, 2-{3-[(2R,6S)-2,6-dimethylmorpholine-4-carbonyl]-5,6-dihydrocyclopenta[c]pyrazol-1(4H)-yl}-1-[4-(2,3-dimethylphenoxy)piperidin-1-yl]ethan-1-one]
1.48 | Cc1c(F)cccc1OC1CCN(C(=O)Cn2nc(C(=O)N3C[C@@H](C)O[C@@H](C)C3)c3c2CCC3)CC1 [Example 128, 2-{3-[(2R,6S)-2,6-dimethylmorpholine-4-carbonyl]-5,6-dihydrocyclopenta[c]pyrazol-1(4H)-yl}-1-[4-(3-fluoro-2-methylphenoxy)piperidin-1-yl]ethan-1-one]
